# Experimental data from ChEMBL document CHEMBL1129539, “2,4-diamino-5-deaza-6-substituted pyrido[2,3-d]pyrimidine antifolates as potent and selective nonclassical inhibitors of dihydrofolate reductases” (J Med Chem, 1996).
# Target: T1, Bifunctional dihydrofolate reductase-thymidylate synthase (Toxoplasma gondii, UniProt Q07422)
# T1 sequence (Q07422 whole entry): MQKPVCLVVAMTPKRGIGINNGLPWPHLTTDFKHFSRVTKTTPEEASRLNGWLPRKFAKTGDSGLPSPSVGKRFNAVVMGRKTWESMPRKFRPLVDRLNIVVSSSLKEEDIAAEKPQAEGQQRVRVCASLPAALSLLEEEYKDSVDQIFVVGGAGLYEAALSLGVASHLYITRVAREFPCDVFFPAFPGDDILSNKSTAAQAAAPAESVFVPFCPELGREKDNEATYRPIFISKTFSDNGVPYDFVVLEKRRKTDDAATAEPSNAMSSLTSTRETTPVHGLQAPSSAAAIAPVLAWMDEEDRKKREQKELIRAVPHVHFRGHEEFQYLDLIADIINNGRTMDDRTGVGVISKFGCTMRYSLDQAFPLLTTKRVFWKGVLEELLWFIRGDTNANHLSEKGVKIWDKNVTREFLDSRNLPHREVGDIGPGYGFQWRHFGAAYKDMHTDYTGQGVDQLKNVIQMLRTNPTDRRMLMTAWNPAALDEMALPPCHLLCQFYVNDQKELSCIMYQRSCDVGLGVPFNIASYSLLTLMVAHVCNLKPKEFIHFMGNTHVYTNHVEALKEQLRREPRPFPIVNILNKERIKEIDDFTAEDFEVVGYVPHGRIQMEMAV
smiles,measurement,value
COc1ccc(OC)c(CN(C)c2cnc3nc(N)nc(N)c3c2)c1,IC50,28 nM
